# Source: PubChem
# S-ASM inh: Inhibitors of Secretory Acid Sphingomyelinase (S-ASM): qHTS. Sphingomyelin phosphodiesterase (Homo sapiens), P17405. placental ASM, HMU-PC fluorogenic substrate, 60 min. Potency, µM (highest dose often 57.5 µM), for the others: at the highest dose activity change, negative = inhibition, actives largely listed as inhibitors. 340,000 tested, 0.006% active
#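 Steps: dispense placental human ASM, pin compound, wait 10 min at room temperature, add HMU-PC0 substrate at 9 uM final, incubate 60 min at 37 °C, add stop solution raising pH to 10, read fluorescence.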
# Abeta rescue: qHTS for compounds that reverse cellular toxicity of Amyloid beta (A-beta) peptide in yeast: Primary Screen | AID 1347071, 2019 | Potency, µM (series often up to 46.1 µM), actives largely listed as activators | yeast expressing A-beta42, growth rescue, OD600, 48 h; response scale: 0% DMSO, 100% iron-clioquinol control | 410,000 tested, 0.063% active; further: nearly all actives have a fitted effect of over 55% in size
#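 Growth rescue measured by 600 nm absorbance after 48 h yeast culture at 30 C with compound. Values normalized between DMSO and an equimolar ferric chloride plus clioquinol control.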
# aSyn rescue: qHTS of alpha-syn Inhibitors; Yeast expressing alpha-synuclein, growth rescue, BacTiter-Glo, 24 h; Potency, µM (series often up to 46.1 µM), for the others: at the highest dose growth rescue (activation), most hits filed as activators; 370,000 tested, 0.14% active; further: % of control where 0% means no effect; nearly all actives have a fitted effect of over 65% in size
#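 Galactose-induced alpha-syn yeast (OD600=0.02, raffinose-pregrown) + pinned cpd, 24 hr, 30 deg C; growth by BacTiter-Glo luminescence. Growth restoration scores as activation.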
# TDP43 rescue: qHTS of TDP-43 Inhibitors | TDP-43 expressing yeast growth rescue, BacTiter-Glo, 24 h | Potency, µM (highest dose often 46.1 µM), inactives show at the top dose growth rescue (activation), usual class: activators | 410,000 tested, 1.8% active; further: % of control where 0% means no effect; nearly all actives have a fitted effect of over 50% in size
#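 Yeast expressing TDP-43 (pregrown in raffinose, seeded at OD600=0.02 in galactose medium) exposed to compounds 24 hr at 30 deg C. Growth read by BacTiter-Glo luminescence; rescue of toxicity appears as increased signal.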
# Rango release inh: qHTS Assay for Inhibitors of RanGTP induced Rango (Ran-regulated importin-beta cargo) - Importin beta complex dissociation; Snurportin-1 (Homo sapiens) + GTP-binding nuclear protein Ran (Homo sapiens) + Importin …; Biochemical FRET Rango-importin beta, RanGTP-induced dissociation; Potency, µM (doses to about 46.1 µM), for the others: top-dose activity change, negative = inhibition; 340,000 tested, 0.071% active; AID 540253, 2011; calls by dose curve; further: % of control where 0% means no effect; nearly all actives have a fitted effect of over 45% in size
#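 Compounds preincubate 5 min with complex of recombinant Rango and importin beta in PBS with 1 mM DTT. Ran (0.6 uM) loaded with 2 mM GTP plus 0.2 uM RCC1 starts dissociation; FRET is recorded 45 min later.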
# Rango-impB inh: qHTS Assay for Inhibitors of Rango (Ran-regulated importin-beta cargo) - Importin beta complex formation | Importin subunit beta-1 (Homo sapiens), Q14974 | Rango CFP/YFP FRET sensor + importin beta, 45 min | Potency, µM (doses to about 92.2 µM), inactives show at the top dose inhibition of complex formation | 340,000 tested, 0.031% active; calls by dose curve;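 further: 0% = DMSO wells and 100% = buffer wells lacking importin beta; nearly all actives have a fitted effect of over 15% in size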
#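 FRET biosensor Rango (snurportin 1 IBB between N-terminal EYFP and C-terminal Cerulean), 50 nM in PBS/1 mM DTT/0.02% Tween-20/0.1% BSA, preincubated 5 min RT with compound; 0.125 microM importin beta added, 45 min RT, CFP/YFP FRET ratio read.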
# * marks the source's active call; other numbers are inactive results; i = inactive; ? = inconclusive; / = not tested or not shown. Shown are actives, neighbours in structure and some others; about 2% of the full set was active somewhere. Unless noted, the call rests on the fitted dose curve; in most records, active means well fitted curve in the direction sought with a large enough effect; inconclusive means small, poorly fitted or top-dose-only effect, or another doubt; inactive means no such curve, though single readings can be large; an effect the other way counts as inactive or inconclusive. Potency means the concentration at half of the fitted maximal effect.
Compound	S-ASM inh	Abeta rescue	aSyn rescue	TDP43 rescue	Rango release inh	Rango-impB inh
CCN(CC)C(=O)CSc1nc(N)c(C#N)c(-c2cccs2)c1C#N	35.2%	i	-6.4%	13.0%	-0.5%	?
CCSc1nc(N)nc(-c2cccs2)c1C#N	8.7%	i	-17.7%	22.4µM*	-7.4%	-0.1%
CC(=O)C1=CCC(c2ccccc2Cl)N(S(=O)(=O)c2ccc(C)cc2)C1 (stereo not given)	/	i	1.8%	20µM*	/	/
CCNC(=O)n1nccc1C(C)Oc1ccc(Cl)cc1 (stereo not given)	-0.1%	i	-11.5%	11.2µM*	9.2%	?
CCNC(=O)n1nccc1C(C)Oc1cccc(C(F)(F)F)c1 (stereo not given)	-1.2%	i	-8.1%	15.8µM*	-4.6%	1.0%
COc1ccc(N2C(=O)CC(SCc3ccc(Cl)cc3)C2=O)cc1 (stereo not given)	-1.3%	i	12.1%	22.4µM*	12.6%	3.3%
O=C1CC(SCc2nc3ccccc3[nH]2)C(=O)N1c1ccc(F)c(Cl)c1 (stereo not given)	-0.2%	i	/	12.6µM*	-26.2%	?
O=C1CC(SCc2nc3ccccc3[nH]2)C(=O)N1c1ccc(Cl)cc1 (stereo not given)	4.9%	i	-9.2%	17.9%	-20.0%	?
Cc1ccc(-c2nc3cnccn3c2Nc2ccc(C(C)C)cc2)o1	/	/	2.9%	/	/	/
CN(C)c1ccc(/C=C/c2cnnc3ccccc23)cc1	/	/	-29.6%	/	/	/
Cc1cc2c(cc1S(=O)(=O)N(CCN(C)C)Cc1ccco1)OCC(=O)N2	/	i	/	15.6%	/	/
COc1ccc(CCCC(=O)NCc2ccccc2)cc1C	3.0%	i	9.1%	17.8µM*	2.3%	-1.1%
Cc1cc(O)c(CN(C)C)c2c1C(=O)/C(=C/c1ccco1)O2	7.2%	i	2.0%	-2.4%	25.9µM*	?
COc1ccc2c(c1)O/C(=C\c1ccco1)C2=O	180.3%	i	8.3%	21.4%	?	?
O=C(Cc1ccc(F)cc1)OCN1C(=O)c2ccccc2C1=O	0.8%	i	12.3%	?	-8.0%	-4.4%
O=C(Cc1cccc(C(F)(F)F)c1)OCN1C(=O)c2ccccc2C1=O	-2.4%	i	24.3%	35.5µM*	-7.4%	1.6%
CCc1ccc(-c2nc(CS(=O)CC(=O)NCCc3ccc(C)cc3)c(C)o2)cc1 (stereo not given)	/	i	/	20.5%	/	/
Cc1ccc(C(=O)Nc2cccnc2Oc2ccc(Cl)cc2)cc1	-10.7%	i	2.9%	-2.7%	-7.2%	-3.0%
Cc1ccc(S(=O)(=O)Nc2cccnc2Oc2ccc(Cl)cc2)cc1	1.6%	i	16.1%	20µM*	0.4%	1.7%
CCN1CCN(C(=O)C2CCCN(S(=O)(=O)c3cc(Cl)ccc3Cl)C2)CC1 (stereo not given)	0.0%	i	-1.0%	7.6%	4.2%	-0.2%
CC1CCN(C(=O)C2CCN(S(=O)(=O)c3cc(Cl)ccc3Cl)CC2)CC1	-2.3%	?	3.1%	12.6µM*	-0.4%	0.5%
CCc1nn(-c2ccccc2)c2c1-c1cc(OC)c(OC)cc1C1(N2)C(=O)Nc2ccccc21 (stereo not given)	36.7%	i	13.7%	5.3%	16.4µM*	?
COc1cc2c(cc1OC)C1(Nc3c-2c(C)nn3-c2ccccc2)C(=O)Nc2ccccc21 (stereo not given)	-0.3%	i	7.6%	0.0%	-23.5%	?
CCOc1ccc(/C=C/c2ccc3ccccc3n2)cc1OCC	/	/	10.7%	/	/	/
NS(=O)(=O)Nc1c(Br)cc(Br)c2cccnc12	/	/	-1.3%	/	/	/
CCCCCCCCCCCCCCCCn1cc[n+](C)c1	?	i	-65.6%	-58.1%	?	65.1µM*
O=C(/C=C/c1ccco1)Oc1cc(Br)cc(/C=N/NC(=O)c2ccccc2O)c1	57.6%	i	22.4µM*	7.0%	?	?
O=C(NCc1ccccc1C(F)(F)F)C1CC(c2ccccc2[N+](=O)[O-])=NO1 (stereo not given)	-1.2%	i	3.9%	12.6µM*	0.6%	-2.4%
O=C(COc1ccc2ccccc2c1Br)N1CCCC1	2.2%	i	4.8%	11.2µM*	13.6%	-3.4%
COc1ccccc1OCC(=O)N1CCN(C(=O)COc2ccccc2OC)CC1	2.2%	i	2.2%	-4.4%	19.6%	-2.8%
COc1cc2ccccc2cc1C(=O)N1CCN(C(C)=O)CC1	0.9%	i	-1.5%	11.3%	14.7%	6.4%
COc1ccccc1N1CCN(C(=O)COc2cccc3ccccc23)CC1	/	i	?	35.5µM*	10.7%	3.3%
COc1cc(OC)cc(C(=O)N2CCN(c3ccccc3F)CC2)c1	4.4%	i	4.1%	?	-0.9%	?
CCOc1ccccc1N1CCN(C(=O)c2cc3ccccc3cc2OC)CC1	/	i	6.9%	14.1µM*	31.9%	3.1%
COc1ccc2[nH]c(C(=O)N3CCN(c4ccccc4F)CC3)c(C)c2c1	-11.1%	i	0.9%	15.8µM*	12.6%	-0.6%
Cc1ccc(Nc2nc(C)c(NC(=O)c3ccc(C)cc3)c(Nc3ccc(C)cc3)n2)cc1	/	i	/	-2.5%	/	/
COc1cc2ccccc2cc1C(=O)N1CCN(c2nc3ccc(F)cc3s2)CC1	/	i	/	12.6µM*	/	/
COc1cc(SC)ccc1C(=O)N1CCN(c2ccccc2F)CC1	-1.2%	i	1.2%	11.2µM*	0.5%	0.9%
Cc1ccc(C)c(NC(=O)Cn2cc(S(=O)(=O)N3CCCC3)c(S(=O)(=O)N3CCCC3)c2)c1	/	i	/	22.2%	/	/
O=C(CCn1ccc2cc(S(=O)(=O)N3CCCC3)ccc21)NCc1ccccc1Br	/	i	/	21.0%	/	/
CC(=O)N1CCN(C(=O)c2ccc3oc(CCCc4ccccc4)nc3c2)CC1	0.3%	i	2.1%	3.3%	-5.6%	1.3%
CCOC(=O)N1CCN(C(=O)c2ccc3oc(CCCc4ccccc4)nc3c2)CC1	1.8%	i	5.9%	15.8µM*	0.1%	-0.5%
COc1cc2c(cc1OC)C(c1cc(-c3cc(Cl)ccc3Cl)oc1C)=NCC2	/	/	0.6%	/	/	/

# Given with each value named: part of the list above
COc1ccccc1OCC(=O)N1CCN(C(=O)COc2ccccc2OC)CC1
  S-ASM inh: 2.2%; Abeta rescue: i; aSyn rescue: 2.2%; TDP43 rescue: -4.4%; Rango release inh: 19.6%; Rango-impB inh: -2.8%
COc1cc2ccccc2cc1C(=O)N1CCN(C(C)=O)CC1
  S-ASM inh: 0.9%; Abeta rescue: i; aSyn rescue: -1.5%; TDP43 rescue: 11.3%; Rango release inh: 14.7%; Rango-impB inh: 6.4%
COc1ccccc1N1CCN(C(=O)COc2cccc3ccccc23)CC1
  S-ASM inh: /; Abeta rescue: i; aSyn rescue: ?; TDP43 rescue: 35.5µM*; Rango release inh: 10.7%; Rango-impB inh: 3.3%
COc1cc(OC)cc(C(=O)N2CCN(c3ccccc3F)CC2)c1
  S-ASM inh: 4.4%; Abeta rescue: i; aSyn rescue: 4.1%; TDP43 rescue: ?; Rango release inh: -0.9%; Rango-impB inh: ?
